Laboratory results published in PubChem BioAssay AID2551 (National Center for Advancing Translational Sciences (NCATS), 2010).
Only a part is listed here, and it is no random draw. Records with an inconclusive call do not appear. Calls of active or inactive are those of the source. Calls come from the whole dose curve; as a rule, active = well fitted inhibition curve with a large enough effect; inconclusive = small, poorly fitted or top-dose-only effect, or effect the other way; inactive = no such curve, though single readings can be large or run the other way.

Amino acid sequences for entries named in this document (tags omitted).
UniProt P51450, whole entry: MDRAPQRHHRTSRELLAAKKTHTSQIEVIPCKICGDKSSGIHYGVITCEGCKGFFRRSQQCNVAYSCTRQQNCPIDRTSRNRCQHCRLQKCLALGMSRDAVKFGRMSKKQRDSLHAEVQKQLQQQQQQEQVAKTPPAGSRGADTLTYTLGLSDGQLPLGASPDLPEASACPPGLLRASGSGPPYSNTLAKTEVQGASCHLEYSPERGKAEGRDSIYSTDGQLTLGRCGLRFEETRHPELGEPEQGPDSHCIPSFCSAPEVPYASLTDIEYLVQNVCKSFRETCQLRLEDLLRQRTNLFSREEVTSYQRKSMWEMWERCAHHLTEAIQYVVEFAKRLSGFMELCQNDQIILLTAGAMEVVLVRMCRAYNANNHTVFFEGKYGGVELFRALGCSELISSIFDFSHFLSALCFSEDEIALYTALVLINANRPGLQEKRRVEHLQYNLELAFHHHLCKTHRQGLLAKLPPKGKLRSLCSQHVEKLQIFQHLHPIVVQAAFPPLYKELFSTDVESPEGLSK

What follows are compounds tested against Nuclear receptor ROR-gamma (Mus musculus) (UniProt P51450) (assay: qHTS for inhibitors of ROR gamma transcriptional activity). Details: Drosophila S2 Gal4-RORgamma UAS-luciferase reporter, 20 h; at 53.6 µM (top of the series).
% is set by controls: 0 for no effect and ±100 for the full control effect.
Note: nearly all actives have a fitted effect of over 60% in size.

Row | SMILES | activity change, negative = inhibition
1 | CC(C)(C)C(=O)NC(Sc1ccccc1)C(Cl)(Cl)Cl (configuration not stated) | inactive: -2.1%
2 | CN(N=O)C(=N)N[N+](=O)[O-] | inactive: -24.3%
